The source of these data is PubChem BioAssay AID823 (SRMLSC, 2007).

Each structure is given as a SMILES string. The entries are a selection whose mix differs from that of the whole data set. Results filed as inconclusive are left out. Calls of active or inactive are those of the source.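 How the source made its calls: active means cell viability at or below a set limit in both duplicate runs, the limit being the all-compound median minus 4 SD (cut at about 23% in these data, passing the limit was not always enough); inconclusive means no clear call, values can overlap the other calls; inactive means the rest.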

The assay is described as follows: growth suppression of beta-catenin knockout HCT116, pilot screen, human colon tumor cells (AID 823).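 Further: 0% = wells killed by 20 µM Hyamine and 100% = untreated DMSO cell wells.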 The conditions noted are these: CellTiter-Glo, 60 h, at 10 µM, stronger effect = lower value. A general note: In ATP-based viability assays light output follows the ATP content of the culture.
`CP(=O)(Nc1ccc2c(c1)OCCO2)Oc1ccccc1` (stereo not given): the viability is inactive: 98%. Take `CP(=O)(Oc1ccccc1)N1CCOC1=O` (stereo not given): the viability was inactive: 102%. Consider `CP(=O)(NC(=O)Nc1ccccc1)Oc1ccccc1` (stereo not given), for which the viability is inactive: 94.7%. In the case of `Cc1ccc(NP(C)(=O)Oc2ccccc2)c(C)c1` (stereo not given), the viability is inactive: 101%. As to `Cc1ccc(C)c(NP(C)(=O)Oc2ccccc2)c1` (stereo not given), the viability was inactive: 98.2%.

What is called viability is a read-out of living cells in per cent, often relative to untreated cells.
